According to US20250017942A1, “Prevention and treatment of osteoarticular diseases by inhibiting acetylcholinesterase” (priority 2021, published 2025):

What was measured:
[1] = target: T1, AChE (Rattus norvegicus, UniProt P37136); details: read-out: AChE inhibitory IC50; Table 3, literature values; cited from earlier work
[2] = target: T1, AChE; assay: Anti-AChE activities of known AChE inhibitors and novel dimers (Table 3); details: AChE inhibitory IC50 of tacrine divided by that of each AChE inhibitor

In the case of `c1ccc2c(NCCCNc3c4c(nc5ccccc35)CCCC4)c3c(nc2c1)CCCC3`, the IC50 [1] is given as 254 nM and the “Relative potency (fold change)” value [2] is given as 1 fold change.
